# Rows were chosen to be rich in hits. Some 1.8% of all compounds tested hit in one or more screens of this group.
# UUG fidelity: yeast start codon fidelity modulation | S. cerevisiae UUG-firefly luciferase reporter, luminescence/redox ratio | activity score, % at 18.7 µM | hit rate 0.13% among 350,000 | AID 602363;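 active means replicate mean at a twofold rise or more, about +100% in these data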;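 further: firefly luciferase made from a UUG start codon reports start codon fidelity; reporter light over untreated wells divided by growth signal over untreated wells; some hits fall short of that in this replicate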
# E-selectin induc: induces E-selectin expression in human endothelial cells; 260,000 compounds, 0.37% hits; HUVEC E-selectin immunofluorescence imaging; normalized: neutral wells 0, TNF-alpha wells 100; AID 686992; activation, % at 7.58 µM;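 active means mean E-selectin-positive cell signal at least 10% of the positive control, reached in at least 60% of replicates, without over 20% cell loss; inconclusive means no rule given, readout overlaps actives, possibly toxicity-flagged; inactive means the rest, including those meeting only one limit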
#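 Test system: HUVEC; input: 3,000 HUVEC/well; measured by: immunofluorescence imaging; read-out: % PE-positive cells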
# DENV2 CPE: inhibitors of DENV2 cytopathic effect; DENV2-infected cells, cytopathic effect rescue, plate reader; CPE inhibition, % at 9.99 µM; 350,000 compounds, 1.7% hits; AID 651640; in the data active means CPE inhibition above about 20%, passing the limit was not always enough; inconclusive means no clear call, values can overlap the other calls; tested in BHK-21 cells;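 further: 0% = median of neutral control wells and 100% = median of positive control wells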
# Cneo AK release: Cryptococcus neoformans lysis via adenylate kinase release | C. neoformans lysis, adenylate kinase release luminescence, 4 h; normalised: neutral wells 0, clomiphene wells 100 | lysis activity, % at 15 µM | 360,000 compounds, 0.2% hits;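 active means mean lysis activity across replicates of at least 80%, whatever share of replicates individually reach that level; inactive means mean lysis activity below 80%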
#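 Material – Cryptococcus neoformans yeast cells · Quantity – 5 × 10^6 yeast cells/mL · Buffer or medium – YPD medium · Compound – single dose · Timing – 4 h static compound exposure, 37 °C, read 1 h post-reagent · Signal – adenylate kinase release luminescence · Read-out basis – lysis from increased AK signal · Benchmarks – Clomiphene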
# Numbers without * were called inactive; u = inconclusive; x = no result.
# Screens by letter – A = UUG fidelity; B = E-selectin induc; C = DENV2 CPE; D = Cneo AK release
1) CC(=O)c1cccc(NC(=S)N2CCN(S(=O)(=O)c3ccc(F)cc3)CC2)c1
  A = -14	B = 0	C = u	D = -1
2) Cc1ccc(NC(=S)N2CCN(S(=O)(=O)c3ccc(C)cc3)CC2)cc1
  A = -20	B = 0	C = 27*	D = 0
3) COCC(=O)N(C)C[C@H]1Oc2cc(C3=CCCCC3)ccc2S(=O)(=O)N([C@H](C)CO)C[C@@H]1C
  A = 16	B = 4	C = -2	D = 0
4) C[C@H](CO)N1C[C@H](C)[C@@H](CN(C)C(=O)Nc2ccc(C(F)(F)F)cc2)Oc2ccc(NC(=O)Cc3cn(C)c4ccccc34)cc2CC1=O
  A = -3	B = 34*	C = 0	D = -1
5) C[C@H]1CN([C@@H](C)CO)C(=O)Cc2cc(NC(=O)Cc3cn(C)c4ccccc34)ccc2O[C@H]1CN(C)Cc1ccc(C(F)(F)F)cc1
  A = 7	B = 258*	C = -6	D = 10
6) C[C@@H]1CN([C@H](C)CO)C(=O)Cc2cc(NC(=O)Cc3cn(C)c4ccccc34)ccc2O[C@H]1CN(C)Cc1ccc(C(F)(F)F)cc1
  A = 23	B = 152*	C = 33*	D = 6
7) C[C@@H]1CN([C@H](C)CO)C(=O)Cc2cc(NC(=O)Cc3cn(C)c4ccccc34)ccc2O[C@@H]1CN(C)Cc1ccccc1
  A = -3	B = 0	C = 10	D = -22
8) C[C@@H]1CN([C@@H](C)CO)C(=O)Cc2cc(NC(=O)Cc3cn(C)c4ccccc34)ccc2O[C@@H]1CN(C)Cc1ccccc1
  A = -13	B = 0	C = -4	D = -19
9) CC(C)NC(=O)N(C)C[C@@H]1Oc2ccc(NC(=O)Cc3ccccc3)cc2C(=O)N([C@H](C)CO)C[C@@H]1C
  A = 8	B = x	C = -5	D = 13
10) CCC(=O)N1C[C@@H](C)[C@H](OC)CN(C)C(=O)c2cc(NC(=O)c3ccc(F)cc3)ccc2OC[C@H]1C
  A = 12	B = 0	C = -17	D = 3
11) CC(NC(=O)/C(C#N)=C/c1ccc([N+](=O)[O-])o1)c1ccccc1 (centres undefined)
  A = -16	B = 42*	C = -3	D = -2
12) O=C(Nc1ccc(S(=O)(=O)NC2=NCCCCC2)cc1)c1cccs1
  A = -5	B = 0	C = 65*	D = 1
13) O=C(Nc1ccc(S(=O)(=O)NC2=NCCCCC2)cc1)c1ccc([N+](=O)[O-])s1
  A = 1	B = 0	C = 4	D = -4
14) COc1ccc2c3c([nH]c2c1)[C@@H](CO)N(C(=O)Cc1ccccc1)CC31CCN(C(=O)Cc2ccccc2)CC1
  A = x	B = 0	C = 6	D = x
15) COc1ccc(OC)c(S(=O)(=O)N/N=C\c2c[nH]c3ccccc23)c1
  A = -12	B = 3	C = 37*	D = -13
16) COc1ccc(OC)c(S(=O)(=O)N/N=C(/C)c2c[nH]c3ccccc23)c1
  A = -7	B = 1	C = -3	D = 3
17) C[C@H]1CN([C@@H](C)CO)C(=O)Cc2cc(NS(=O)(=O)c3ccccc3)ccc2O[C@@H]1CN(C)C
  A = -11	B = 2	C = 1	D = 5
18) CCC(Sc1nc(C)cc(C)n1)C(=O)Nc1ccc(S(N)(=O)=O)cc1 (centres undefined)
  A = x	B = 0	C = 14	D = x
19) CCC(SC1=NCCS1)C(=O)Nc1ccc(S(N)(=O)=O)cc1 (centres undefined)
  A = -19	B = x	C = 26*	D = -4
20) CO[C@H](CN(C)Cc1ccc2c(c1)OCO2)[C@@H](C)CN(C(=O)c1ccccc1)[C@@H](C)CO
  A = x	B = 0	C = 6	D = 104*
21) CO[C@H](CN(C)Cc1ccc2c(c1)OCO2)[C@H](C)CN(C(=O)c1ccccc1)[C@H](C)CO
  A = x	B = 0	C = 2	D = 0
22) Cc1cccc(C)c1-n1nnnc1C1(C)CCC(=O)N1Cc1cccs1 (centres undefined)
  A = x	B = -3	C = 57*	D = x
23) Cc1cccc(C)c1-n1nnnc1C1(C)CCC(=O)N1Cc1cccnc1 (centres undefined)
  A = x	B = 0	C = 38*	D = x
24) COc1ccc(CN2C(=O)CCC2(C)c2nnnn2Cc2ccccc2)cc1 (centres undefined)
  A = x	B = 0	C = 85*	D = x
25) COCC(=O)N1C[C@@H](C)[C@H](OC)CN(C)C(=O)c2ccc(NC(=O)c3ccc(F)cc3)cc2OC[C@@H]1C
  A = 10	B = 0	C = 0	D = -4
26) Cc1ccc(S(=O)(=O)Nc2ccc3c(c2)C(=O)N([C@@H](C)CO)C[C@H](C)[C@H](CN(C)S(C)(=O)=O)OCCCC[C@@H](C)O3)cc1
  A = 49	B = 1	C = 2	D = -1
27) Cc1ccc(S(=O)(=O)Nc2ccc3c(c2)C(=O)N([C@H](C)CO)C[C@@H](C)[C@H](CN(C)S(C)(=O)=O)OCCCC[C@@H](C)O3)cc1
  A = 18	B = 0	C = 36*	D = -1
28) Cc1ccc(S(=O)(=O)Nc2ccc3c(c2)C(=O)N([C@@H](C)CO)C[C@H](C)[C@@H](CN(C)S(C)(=O)=O)OCCCC[C@H](C)O3)cc1
  A = 17	B = 0	C = 29*	D = -3
29) CCC(=O)N1C[C@H](C)[C@H](OC)CN(C)C(=O)c2ccc(NC(=O)C3CCOCC3)cc2OC[C@H]1C
  A = x	B = 0	C = x	D = 54
30) CC(C)=C(NC(=O)c1ccccc1Cl)C(=O)NCCc1nc2ccccc2[nH]1
  A = -10	B = x	C = 130*	D = 0

# Following part
# Values run as follows: UUG fidelity | E-selectin induc | DENV2 CPE | Cneo AK release
(31) COc1ccccc1C(=O)NC(C(=O)NCCc1nc2ccccc2[nH]1)=C(C)C
    -20 | 0 | 0 | -1
(32) CC(=O)Nc1ccc2c(c1)C(=O)N(C)[C@@H]1CC[C@@H](CC(=O)NCc3ccc(Cl)cc3)O[C@H]1CO2
    5 | 0 | -1 | 1
(33) CN1C(=O)c2cc(NC(=O)c3cccc(F)c3)ccc2OC[C@H]2O[C@@H](CC(=O)N3CCc4ccccc4C3)CC[C@H]21
    -11 | 0 | 31* | 4
(34) CCCNC(=O)C[C@H]1CC[C@H]2[C@H](COc3ccc(NC(=O)c4cccc(F)c4)cc3C(=O)N2C)O1
    1 | 0 | 12 | -2
(35) CN(C)CCCNC(=O)C[C@H]1CC[C@@H]2[C@@H](COc3ccc(NC(=O)c4cccc(F)c4)cc3C(=O)N2C)O1
    -2 | 0 | 42* | -2
(36) CN1C(=O)c2cc(NC(=O)c3cccc(F)c3)ccc2OC[C@H]2O[C@H](CC(=O)N3CCc4ccccc4C3)CC[C@@H]21
    -12 | 0 | 78* | 2
(37) C[C@@H]1CCCCO[C@@H](CN(C)C(=O)Nc2cccc3ccccc23)[C@H](C)CN([C@@H](C)CO)C(=O)c2cc(NC(=O)Nc3cccc4ccccc34)ccc2O1
    x | 0 | -2 | x
(38) O=C(Nc1ccc(C(O)c2ccccc2)cc1)[C@@H]1O[C@H](CO)[C@H](O)[C@H](O)[C@H]1O (some centres undefined)
    -5 | 0 | 7 | -1
(39) COc1ccc(-c2ccccc2)cc1NC(=O)[C@@H]1O[C@H](CO)[C@H](O)[C@H](O)[C@H]1O
    4 | 0 | 32* | 1
(40) CCCc1cc(=O)oc2c(C)c(OCC(=O)N3C[C@H]4C[C@@H](C3)c3cccc(=O)n3C4)ccc12
    -11 | x | 29* | 4
(41) O=C(Nc1ccc2c(c1)OCO2)N[C@H]1CC[C@H](CCNC(=O)C2CCOCC2)O[C@@H]1CO
    13 | 0 | -6 | -1
(42) CC(=O)N(C)C[C@@H]1Oc2cc(-c3ccc(C)cc3)ccc2S(=O)(=O)N([C@@H](C)CO)C[C@H]1C
    7 | x | 3 | 36
(43) CC(CCc1ccc(O)cc1)NCCC(c1ccccc1)c1ccccc1 (centres undefined)
    -5 | x | 0 | 2

# Some of the entries above, set out differently:
33	CN1C(=O)c2cc(NC(=O)c3cccc(F)c3)ccc2OC[C@H]2O[C@@H](CC(=O)N3CCc4ccccc4C3)CC[C@H]21
- UUG fidelity = -11
- E-selectin induc = 0
- DENV2 CPE = 31*
- Cneo AK release = 4

40	CCCc1cc(=O)oc2c(C)c(OCC(=O)N3C[C@H]4C[C@@H](C3)c3cccc(=O)n3C4)ccc12
- UUG fidelity = -11
- E-selectin induc = x
- DENV2 CPE = 29*
- Cneo AK release = 4

32	CC(=O)Nc1ccc2c(c1)C(=O)N(C)[C@@H]1CC[C@@H](CC(=O)NCc3ccc(Cl)cc3)O[C@H]1CO2
- UUG fidelity = 5
- E-selectin induc = 0
- DENV2 CPE = -1
- Cneo AK release = 1
